In the assay the target is MG64-1 Cas12k effector expressed with an N-terminal Twin Strep tag, an HRV3C protease site and a C-terminal 2xNLS tag. Briefly: mass spectrometry of tryptic peptides from the SEC-eluted Cas12k pulldown complex; emPAI is a relative measure of abundance.

In turn, “small prokaryotic ribosomal protein subunit S15 (from UniProt P0ADZ4 2-89)” yielded an emPAI of 0.46.
